Measured values: US7217527B2, “Assay for phosphodiesterase function” (Vanderbilt University, priority 2003, dated 2007)
Read-outs that look alike come from different tables or passages of the source.

Molecular target: His-Tag PDE5 (Bos taurus, UniProt Q28156)
Experiment: Specificity: effect of unlabeled compounds on [^3H]sildenafil binding to PDE5 (FIG. 3, FIG. 4)
Set-up: The full-length bovine PDE5 cDNA in BacPAK9 (Clontech) purified by QIAGEN was starting material; made in house; host or cells: Sf9 insect cells (baculovirus, Bac-to-Bac); species or system bovine
[1] = 6 nM [^3H]sildenafil, competitor at fourteen-fold excess ([…])

| effect on [^3H]sildenafil binding [1] | effect on [^3H]sildenafil binding | Compound | other results |
| --- | --- | --- | --- |
| no significant effect | – | CN(C(=O)CCCOc1ccc2[nH]c(=O)ccc2c1)C1CCCCC1 [cilostamide] | – |
| strongly inhibitory | – | COC(=O)c1c(-c2cc(OC)c(OC)c(OC)c2)c2ccnc(OCc3ncccn3)c2c(=O)n1Cc1ccnc(C)c1 [T-0156] | – |
| – | – | CC(C)Cn1c(=O)n(C)c(=O)c2[nH]cnc21 [IBMX, 3-isobutyl-1-methylxanthine] | inhibition of [^3H]sildenafil binding (6 nM [^3H]sildenafil, 0.36 mM competitor): more than 90% |
| – | no significant effect | EHNA | – |
| – | no significant effect | COc1ccc(C2CNC(=O)C2)cc1OC1CCCC1 (stereo not drawn) [rolipram] | – |
| – | – | Nc1nc2c(ncn2[C@@H]2O[C@H](COP(=O)(O)O)[C@@H](O)[C@H]2O)c(=O)[nH]1 [5′-GMP] | effect on [^3H]sildenafil binding (6 nM [^3H]sildenafil, competitor at 233,000-fold excess (1.4 mM)): no significant effect |
| – | partially inhibitory | Nc1nc2c(ncn2[C@@H]2O[C@@H]3COP(=O)(O)O[C@H]3[C@H]2O)c(=O)[nH]1 [cGMP] | – |
| no significant effect | – | CCOC(=O)C1=C[C@]2(CC)CCCN3CCc4c(n1c1ccccc41)[C@@H]32 [vinpocetine] | – |

| Compound | effect on [^3H]sildenafil binding [1] | effect on [^3H]sildenafil binding | other results |
| --- | --- | --- | --- |
| CCCc1nn(C)c2c(=O)[nH]c(-c3cc(S(=O)(=O)N4CCN(C)CC4)ccc3OCC)nc12 [sildenafil] | – | strongly inhibitory | – |
